Test results: patent publication US8334304B2, “Aminosulfonyl substituted 4-(aminomethyl)-piperidine benzamides as 5HT4-antagonists” (Janssen Pharmaceutica N.V., priority 2003, dated 2012)

Chains of the proteins cited; added tags and fusions are not shown.
UniProt Q13639, whole entry: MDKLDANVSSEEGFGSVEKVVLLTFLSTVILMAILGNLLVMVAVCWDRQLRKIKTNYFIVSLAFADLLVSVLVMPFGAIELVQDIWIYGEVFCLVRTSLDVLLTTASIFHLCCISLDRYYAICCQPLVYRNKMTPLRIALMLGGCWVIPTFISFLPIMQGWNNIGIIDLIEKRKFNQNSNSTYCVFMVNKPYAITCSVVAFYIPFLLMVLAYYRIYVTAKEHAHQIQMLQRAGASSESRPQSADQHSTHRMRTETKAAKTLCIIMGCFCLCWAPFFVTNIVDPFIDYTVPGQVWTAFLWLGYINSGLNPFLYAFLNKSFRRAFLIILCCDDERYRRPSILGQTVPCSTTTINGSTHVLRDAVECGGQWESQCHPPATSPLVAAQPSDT

What was measured:
[1] = target: h5-HT4b (Homo sapiens, UniProt Q13639); assay: 5HT4 antagonism: [3H]GR113808 binding to membranes of h5-HT4b-HEK 293 clone 9 cells; details: displacement of 0.1 nM [3H]GR113808, membranes of h5-HT4b-HEK 293 cells, 30 min at 25° C.
[2] = Metabolic stability: incubation with liver microsomes and NADPH-generating system, LC-MS; details: compound 5 μM, microsomes 1 mg/ml, 37 degrees Celsius
Protocol: Sub-cellular tissue preparations were made according to Gorrod et al. (Xenobiotica 5: 453-462, 1975) by centrifugal separation after mechanical homogenization of tissue. Liver tissue was rinsed in ice-cold 0.1 M Tris-HCl (pH 7.4) buffer to wash excess blood. Tissue was then blotted dry, weighed and chopped coarsely using surgical scissors. The tissue pieces were homogenized in 3 volumes of ice-cold 0.1 M phosphate buffer (pH 7.4).
Tissue homogenates were centrifuged at 9000×g for 20 minutes at 4° C. The resulting supernatant was stored at −80° C. and is designated ‘S9’.
The S9 fraction can be further centrifuged at 100.000×g for 60 minutes (4° C.). The resulting supernatant was carefully aspirated, aliquoted and designated ‘cytosol’. The pellet was re-suspended in 0.1 M phosphate buffer (pH 7.4) in a final volume of 1 ml per 0.5 g original tissue weight and designated ‘microsomes’.
All sub-cellular fractions were aliquoted, immediately frozen in liquid nitrogen and stored at −80° C. until use.
For the samples to be tested, the incubation mixture contained PBS (0.1M), compound (5 μM), microsomes (1 mg/ml) and a NADPH-generating system (0.8 mM glucose-6-phosphate, 0.8 mM magnesium chloride and 0.8 Units of glucose-6-phosphate dehydrogenase). Control samples contained the same material but the microsomes were replaced by heat inactivated (10 minutes at 95 degrees Celsius) microsomes. Recovery of the compounds in the control samples was always 100%.
The mixtures were preincubated for 5 minutes at 37 degrees Celsius. The reaction was started at time point zero (t=0) by addition of 0.8 mM NADP and the samples were incubated for 60 minutes (t=60). The reaction was terminated by the addition of 2 volumes of DMSO. Then the samples were centrifuged for 10 minutes at 900×g and the supernatants were stored at room temperature for no longer as 24 hours before analysis. All incubations were performed in duplo. Analysis of the supernatants was performed with LC-MS analysis. Elution of the samples was performed on a Xterra MS C18 (50×4.6 mm, 5 μm, Waters, US). An Alliance 2790 (Supplier: Waters, US) HPLC system was used. Elution was with buffer A (25 mM ammoniumacetate (pH 5.2) in H2O/acetonitrile (95/5)), solvent B being acetonitrile and solvent C methanol at a flow rate of 2.4 ml/min. The gradient employed was increasing the organic phase concentration from 0% over 50% B and 50% C in 5 min up to 100% B in 1 minute in a linear fashion and organic phase concentration was kept stationary for an additional 1.5 minutes. Total injection volume of the samples was 25 μl. […]
Metabolic stability was expressed as % metabolism of the compound after 60 minutes (equation given as example) of incubation in the presence of active microsomes (E(act))

Row | SMILES | pIC50 [1] | % metabolised compound after 60 minutes [2] | pIC50 ([1]; tested form: hydrate (1:1)) | other results
1 | Cc1ccc(C(=O)NC[C@@H]2CCN(CCCCS(N)(=O)=O)C[C@H]2O)c2c1OCCCO2 | 8.78 | 17% | – | –
2 | CNc1cc2c(c(C(=O)NC[C@@H]3CCN(CCCS(N)(=O)=O)C[C@H]3O)c1)OCCO2 (relative stereo) | – | – | – | pIC50 ([1]; tested form: HCl (2:3) hydrate (1:2) 2-propanolate (2)): 7.66
3 | Cc1cc2c(c(C(=O)NC[C@@H]3CCN(CCCS(=O)(=O)NS(C)(=O)=O)C[C@H]3O)c1)OCCCO2 | 7.8 | – | – | –
4 | COc1ccc(C(=O)NC[C@@H]2CCN(CCCCS(N)(=O)=O)C[C@H]2O)c2c1OCCO2 | 8.83 | 11% | – | –
5 | Cc1cc2c(c(C(=O)NC[C@@H]3CCN(CCCC(=O)NS(C)(=O)=O)C[C@H]3O)c1)OCCCO2 | – | – | 7.51 | % metabolised compound after 60 minutes ([2]; tested form: hydrate (1:1)): 6%
6 | CNc1cc2c(c(C(=O)NC[C@@H]3CCN(CCCS(N)(=O)=O)C[C@H]3O)c1)OCCCO2 (relative stereo) | – | – | – | pIC50 ([1]; tested form: E-2-butenedioate (2:1) hydrate (1:1) eth): 6.56
7 | Nc1cc(C(=O)NC[C@@H]2CCN(CCCS(N)(=O)=O)C[C@H]2O)c2c(c1Cl)OCCCO2 (relative stereo) | 7.61 | – | – | –
8 | Nc1cc(C(=O)NC[C@@H]2CCN(CCCS(N)(=O)=O)C[C@H]2O)c2c(c1Cl)OCCO2 (relative stereo) | – | – | 7.92 | –

More lines, main results first:

Row | pIC50 [1] | % metabolised compound after 60 minutes [2] | pIC50 ([1]; tested form: hydrate (1:1)) | SMILES | other results
9 | 9.13 | 13% | – | Cc1cc2c(c(C(=O)NC[C@@H]3CCN(CCCCS(N)(=O)=O)C[C@H]3O)c1)OCCO2 | –
10 | – | – | 8.02 | Nc1cc2c(c(C(=O)NC[C@@H]3CCN(CCCS(N)(=O)=O)C[C@H]3O)c1)OCCO2 (relative stereo) | –
